Data as given in patent US20240288436A1 (KOREA ATOMIC ENERGY RESEARCH INSTITUTE, published 2024).

T1: Biotin-GSAGGSTWGYPFHDGDYLNDE synthetic peptide (human TM4SF4 aa 126-140) (human, N-terminal biotin)
T1 construct: Immobilised on a streptavidin sensor chip as the SPR ligand; also called Biotin-hTM4SF4 aa 126-140; human TM4SF4-peptide (hTM4SF4 aa 126-140)
T1 peptide: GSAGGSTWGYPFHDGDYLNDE

B1: Hz2B7-1.1 humanized anti-TM4SF4 antibody (antibody, human IgG1, V domains shown)
VH: EITLKESGPTLVKPTQTLTLTCTFSGFSLSTYGIGVSWIRQPPGKALEWLAHIWWNDNKYYNTALKSRLTITKDTSKNQVVLTMTNMDPVDTATYYCARKEGSSAPFAYWGQGTLVTVSS
VL: DIVMTQSPDSLAVSLGERATINCKSSQSLLNSSNQKNYLAWYQQKPGQPPKLLIYFASTRESGVPDRFSGSGSGTDFTLTISLMQAEDVAVYYCQQHYRTPPTFGQGTKVEIK
notes: Tested as whole IgG from the pdCMV-dhfr vector (human IgG1 heavy constant, human kappa light constant); also called HzE2B7-1.1; HzE2B7-1.1(origin)
B2: Hz2B7-1.2 humanized anti-TM4SF4 antibody (LC N31F) (antibody, V domains shown)
VH: B1 VH
VL: B1 VL with N31F
notes: Whole IgG, human IgG1 / kappa constant regions from the pdCMV-dhfr vector; only VH and VL are tied to the antibody; also called HzE2B7-1.2; HzE2B7-1.2(LC N31F)
B3: Hz2B7-4.3 humanized anti-TM4SF4 antibody (HC W55Y, LC N31V) (antibody, V domains shown)
VH: B1 VH with W55Y
VL: B1 VL with N31V
notes: Whole IgG, human IgG1 / kappa constant regions; also called HzE2B7-4.3; HzE2B7-4.3(HC W55Y, LC N31V)

Target: T1, Biotin-GSAGGSTWGYPFHDGDYLNDE synthetic …
Experiment: SPR, Biacore T200, biotin-peptide on streptavidin chip, antibody as analyte, 1:1 binding
Protocol: First, a streptavidin-conjugated sensor chip (Series S Senser Chip SA, Cytiva) was inserted into Biacore T200 (Cytiva), and activation buffer (1M NaCl, 50 mM NaOH) was flowed for 30 seconds, followed by HBS-EP buffer (Cytiva) to induce activation and stabilization of the sensor chip surface. […] The analyze antibodies of each concentration were flowed through the constructed ligand-bound streptavidin conjugated sensor chip at a rate of 30 ul/min for 480 seconds to induce binding, and then HBS-EP buffer solution was flowed at the same time and speed, and the degree to which the analyte antibody was dissociated from the ligand peptide was obtained in the form of a response unit. The association rate (Ka), dissociation rate (Kd), and equilibrium dissociation constant (KD, Kd/Ka) values were calculated using Biacore T200 evaluation software (Cytiva) by excluding the ligand-unbound sensor chip response values obtained in the same manner. As a calculation standard, the mass transfer fitting model for the interaction between the ligand peptide and the analyte antibody was analyzed using 1:1 binding.

| Binder | Kd [nM] |
| --- | --- |
| B1 | 24.4 |
| B2 | 6.03 |
| B3 | 81.7 |

Where a chain is given by its changes, count along the chain named. Names and notes keep the numbering of the source.
